In ChEMBL document CHEMBL1687735, “Resistance to colistin in Acinetobacter baumannii associated with mutations in the PmrAB two-component system” (Antimicrob Agents Chemother, 2009):

How the values were obtained:
Acinetobacter baumannii [1] = details: AB0057, 1.4 ug/ml
Pseudomonas aeruginosa [2] = details: ATCC 27853
Acinetobacter baumannii [3] = details: ATCC 17978
Acinetobacter baumannii [4] = details: AB0057
Acinetobacter baumannii [5] = details: ATCC 17978; remark: listed apart in the source
Acinetobacter baumannii [6] = details: AB0057; remark: listed apart in the source
Acinetobacter baumannii [7] = details: AB0057; remark: listed apart in the source
Acinetobacter baumannii [8] = details: ATCC 17978; remark: listed apart in the source
Acinetobacter baumannii [9] = details: AB0057; remark: listed apart in the source
Acinetobacter baumannii [10] = details: ATCC 17978; remark: listed apart in the source
Acinetobacter baumannii [11] = details: ATCC 17978; remark: listed apart in the source
Pseudomonas aeruginosa [12] = details: ATCC 27853; remark: listed apart in the source
Pseudomonas aeruginosa [13] = details: ATCC 27853; remark: listed apart in the source
Acinetobacter baumannii [14] = details: ATCC 17978; remark: listed apart in the source
Acinetobacter baumannii [15] = details: AB0057; remark: listed apart in the source
Acinetobacter baumannii [16] = details: AB0057; remark: listed apart in the source
Pseudomonas aeruginosa [17] = details: ATCC 27853; remark: listed apart in the source

With COLISTIN SULFATE the T1/2 (Acinetobacter baumannii [1]) was 5 min, the MIC (Pseudomonas aeruginosa [2]) was 1 µg/mL and the MIC (Acinetobacter baumannii [3]) was 1 µg/mL. The MIC (Acinetobacter baumannii [4]) was 64 µg/mL, the MIC (Acinetobacter baumannii [5]) was 0.25 µg/mL and the MIC (Acinetobacter baumannii [6]) was 0.5 µg/mL. It also gave an MIC (Acinetobacter baumannii [7]) of 1 µg/mL, an MIC (Acinetobacter baumannii [8]) of 0.75 µg/mL and an MIC (Acinetobacter baumannii [9]) of 0.25 µg/mL. It also gave an MIC (Acinetobacter baumannii [10]) of 64 µg/mL, an MIC (Acinetobacter baumannii [11]) of 0.5 µg/mL and an MIC (Pseudomonas aeruginosa [12]) of 0.25 µg/mL. The MIC (Pseudomonas aeruginosa [13]) was 2 µg/mL, the MIC (Acinetobacter baumannii [14]) was 2 µg/mL and the MIC (Acinetobacter baumannii [15]) was 1 µg/mL. The MIC (Acinetobacter baumannii [16]) was 1.5 µg/mL and the MIC (Pseudomonas aeruginosa [17]) was 0.25 µg/mL.
